Source: ChEMBL document CHEMBL5143570, “Development of naringenin-O-carbamate derivatives as multi-target-directed liagnds for the treatment of Alzheimer's disease” (Bioorg Med Chem Lett, 2022)

Species on record: Rattus norvegicus
Experiment: Selectivity index, ratio of IC50 for inhibition of rat serum butyrylcholine esterase to IC50 for inhibition of rat cortex AChE

## CN(C)C(=O)Oc1ccc(C2CC(=O)c3c(O)cc(OC(=O)N(C)C)cc3O2)cc1 (stereo unspecified)
  Ratio IC50: 1.9
